Our source for the Ki values is patent US11912716B2 (priority 2018, dated 2024).

This assay addresses δ opioid receptor (Homo sapiens (Human), UniProt P41143). In words: biochemical. The note with it: CHO cell membranes.

As for `CC(=O)O[C@H]1[C@H](OC(C)=O)[C@H]([C@@](C)(O)CC[C@@H]2OC(C)(C)[C@H]3CC[C@]2(C)O3)[C@@]2(C)CC[C@@H]3OC(C)(C)[C@H](OC(C)=O)CC[C@@]3(C)[C@H]12` [3,12,13-triacetyl limaxol A, (3R,5aS,7aS,8R,9R,10R,10aR,10bS)-dodecahydro-8-((S)-2-hydroxy-4-((1S,2S,5R)-1,4,4-trimethyl-3,8-dioxa-bicyclo[3.2.1]octan-2-yl)butan-2-yl)-4,4,7a,10b-tetramethyl-1H-indeno[5,4-b]oxepine-3,9,10-triol triacetate], the inhibition constant (Ki) was found to be 47700 ± 21200 nM (Ki for δ opioid receptor as printed in the text, 3H-DPDPE) and 4770 ± 2130 nM (δ binding affinity Ki (nM), 1.0-1.1 nM 3H-DPDPE).

What is called Ki is a dissociation constant, usually derived from enzyme kinetics or from competition with a known ligand. Low values mean tighter binding, high ones weaker binding.
